Screening data from PubChem BioAssay.
Only some compounds are listed: those with a hit (about 16% of all), similar ones and a draw of the others.
DT40 TDP1 no CPT: qHTS for Inhibitors of human tyrosyl-DNA phosphodiesterase 1 (TDP1): qHTS in cells in absence of CPT | DT40 Tdp1-/- hTDP1 cells, no CPT, ATP luminescence, 48 h | Potency, µM (doses to about 46.2 µM), without a hit: at the top dose activity change, negative = growth inhibition, hits mostly inhibitors | 420,000 tested, 15% active | AID 686978, 2013; also: potency is read from the fitted curve at half-maximal effect; % is scaled to controls: 0 for no effect and ±100 for the full control effect; nearly all actives have a fitted effect of over 55% in size
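Camptothecin absent (DMSO only). Human TDP1-complemented DT40 knockout cells, 400 cells/well, 37 °C for minimum 48 hr; ATP measured via CellTiter-Glo, 30 min dark incubation, luminescence.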
miR-21 reporter: raises the signal of a miR-21 reporter; AID 2288; 340,000 tested, under 10 active; Potency, µM (doses to about 38.3 µM), inactives show at the top dose reporter change, positive = more light; HeLa miR-21 FLuc reporter, luciferase, 48 h; active = well fitted rising curve with a large enough effect; inconclusive = small, poorly fitted or top-dose-only effect; inactive = no such curve, though single readings can be large or run the other way;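 note: % of control where 0% means no effect; miR-21 action dims this reporter so a rising signal means less miR-21 action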
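HeLa cells endogenously expressing miR-21, stably carrying CMV-driven firefly luciferase with a downstream miR-21 binding site, 2000 cells/well. Titrations up to approximately 40 uM, 48 hours; luciferase luminescence read.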
uPA surface inh: inhibitors of cell surface uPA generation; cell surface uPA generation assay, qHTS; Potency, µM (doses to about 38.3 µM), inactives show at the top dose activity change, negative = inhibition, usual class: inhibitors; 330,000 tested, 0.31% active; active = well fitted inhibition curve with a large enough effect; inconclusive = small, poorly fitted or top-dose-only effect; inactive = no such curve, though single readings can be large or run the other way; tested in mouse RAW 264.7 cells; also: potency is read from the fitted curve at half-maximal effect; % is scaled to controls: 0 for no effect and ±100 for the full control effect; nearly all actives have a fitted effect of over 55% in size
TDP1 cell CPT: DT40-hTDP1 cell growth loss with CPT. chicken DT40 Tdp1-/-;hTDP1 cells + 20 nM CPT, ATP luminescence, 48 h. 420,000 tested, 12% active. Potency, µM (doses to about 46.2 µM), without a hit: at the highest dose activity change, negative = growth inhibition, usual class: inhibitors; also: potency is read from the fitted curve at half-maximal effect; % is scaled to controls: 0 for no effect and ±100 for the full control effect; nearly all actives have a fitted effect of over 55% in size
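Chicken DT40 Tdp1-/- cells complemented with human TDP1, 400 cells/well, exposed to compounds plus 20 nM camptothecin for at least 48 h at 37 C; viability read as ATP content by CellTiter-Glo luminescence.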
TDP1 inh: TDP1 (human) enzyme inhibition. Potency, µM (series often up to 130 µM), without a hit: top-dose activity change, negative = inhibition, usual class: inhibitors. recombinant TDP1, AlphaScreen DNA substrate cleavage. Q9NUW8. 350,000 tested, 0.28% active; also: potency is read from the fitted curve at half-maximal effect; % is scaled to controls: 0 for no effect and ±100 for the full control effect; nearly all actives have a fitted effect of over 40% in size
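Here, a 5' biotin and 3' phosphotyrosine-FITC DNA oligonucleotide reports Tdp1 activity: intact substrate bridges AlphaScreen beads, while cleavage leaves a 3' phosphate and drops signal. All incubations at room temperature.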
Numbers without * were called inactive; ? = inconclusive; . = not tested or not shown; [ ] = dose if it differs, or a comment. Unless noted, calls follow the shape of the dose curve; as a rule, active = well fitted curve in the direction sought with a large enough effect; inconclusive = small, poorly fitted or top-dose-only effect, or another doubt; inactive = no such curve, though single readings can be large; an effect the other way counts as inactive or inconclusive.

1) Cc1cc(C)nc(NN=C(c2ccccc2)c2ccccc2)n1
2) CC(/C=C/c1ccccc1)=N/NC(=O)c1nc2nc(C)cc(C)n2n1
3) CC(/C=C/c1ccccc1)=N\Nc1nc(C)cc(C)n1
4) COc1ccc([C@@H](NC(=O)OC(C)(C)C)C(=O)OC(C)(C)C)cc1
5) CC(C)(C)OC(=O)N[C@H](C(=O)OC(C)(C)C)c1ccc2ccccc2c1
6) COC(=O)C(C)Sc1nc(N)c(NC(=O)c2ccco2)c(=O)[nH]1 (configuration not stated)
7) COC(=O)CSc1nc2ccc(NC(=O)c3ccccc3C(=O)N3CCOCC3)cc2s1
8) O=C(COc1ccccc1)Nc1ccc2nc(SCC(=O)N3CCCC3)sc2c1
9) Cc1cccc(NC(=O)CSc2nc3ccc(NC(=O)CSc4nnnn4-c4ccccc4)cc3s2)c1C
10) O=C(Nc1ccc2nc(SCC(=O)N3CCCC3)sc2c1)c1ccccc1
Screen / compound no.	1	2	3	4	5	6	7	8	9	10
DT40 TDP1 no CPT	10.3µM*	?	5.17µM*	?	-26.6%	-4.9%	-14.5%	23.1µM*	.	1.2%
miR-21 reporter	?	-2.4%	-28.1%	.	.	-6.3%	-3.4%	9.5%	-1.1%	0.3%
uPA surface inh	-13.8%	2.3%	-1.2%	5.6%	6.5%	0.0%	-4.3%	.	.	.
TDP1 cell CPT	16.4µM*	-6.8%	4.61µM*	?	8.2µM*	-0.6%	-2.1%	?	.	1.4%
TDP1 inh	3.2%	.	-2.6%	-0.7%	0.0%	.	0.0%	0.5%	2.9%	-1.6%

11) O=C(Nc1ccc2nc(SCC(=O)N3CCOCC3)sc2c1)c1ccccc1Cl
12) O=C(CSc1nc2ccc(NC(=O)CSc3nnnn3-c3ccccc3)cc2s1)Nc1ccccc1
13) NC(=O)CSc1nc2ccc(NC(=O)COc3ccccc3Cl)cc2s1
14) O=C(COc1ccccc1Cl)Nc1ccc2nc(SCC(=O)N3CCOCC3)sc2c1
15) O=C(NCc1ccco1)c1c(F)cccc1Cl
16) CCOC(=O)C(=O)Nc1sc(C(=O)N(CC)CC)c(C)c1C#N
17) O=C(N(c1ccccc1)c1ccccc1)n1ccnc1
18) Cn1c(SCC(=O)Nc2ccc3nc(SCC(=O)N4CCCC4)sc3c2)nnc1-c1ccccc1
19) COc1ccccc1C(=O)Nc1ccc2nc(SCC(=O)N3CCCC3)sc2c1
20) CCn1c(=O)c2cc(C(=O)NCC(OC)OC)sc2c2ccccc21
Screen / compound no.	11	12	13	14	15	16	17	18	19	20
DT40 TDP1 no CPT	18.4µM*	?	?	4.11µM*	0.1%	-8.3%	-12.0%	?	4.11µM*	?
miR-21 reporter	19.9%	-14.3%	-35.9%	0.2%	-2.3%	-0.6%	-1.8%	8.9%	-16.2%	-1.0%
uPA surface inh	.	-0.8%	.	.	1.7%	5.5%	.	3.0%	.	-1.6%
TDP1 cell CPT	?	16.4µM*	?	?	5.4%	-16.2%	-1.4%	-10.9%	?	?
TDP1 inh	1.6%	0.0%	-6.8%	-2.6%	1.2%	3.6%	5.0%	50.1µM*	-1.6%	.

21) O=c1[nH]c(=O)n(Cc2ccccc2)c2c1C(C(F)(F)F)(C(F)(F)F)N=C(c1ccco1)N2
22) O=c1[nH]c(=O)n(Cc2ccco2)c2c1C(C(F)(F)F)(C(F)(F)F)N=C(c1ccc(F)cc1)N2
23) Cc1ccc2nc(-c3ccccc3)c(CN3CCOCC3)n2c1
24) Cc1ccc(-c2nc3c4ccccc4ccn3c2CN2CCCCC2)cc1
25) c1ccc(-c2nc3c4ccccc4ccn3c2CN2CCCCC2)cc1
26) O=C(N/N=C/c1cccc([N+](=O)[O-])c1)c1cc2ccccc2o1
27) O=C(N/N=C/c1ccccc1F)c1cc2c(ccc3ccccc32)o1
28) Cc1ccc(C(=O)N/N=C/c2ccc3c(c2)OCO3)o1
29) O=C(N/N=C/c1ccsc1)c1cc2ccccc2o1
30) COc1ccc(OC)c(/C=N\NC(=O)c2cc3c(ccc4ccccc43)o2)c1
Screen / compound no.	21	22	23	24	25	26	27	28	29	30
DT40 TDP1 no CPT	?	6.51µM*	0.1%	23.1µM*	20.6µM*	23.1µM*	-12.2%	-0.8%	-3.1%	?
miR-21 reporter	-1.3%	?	-19.3%	-27.8%	-10.0%	-8.8%	-4.8%	-54.2%	-9.8%	0.3%
uPA surface inh	0.2%	.	-18.1%	-13.4%	6.3%	0.8%	-4.8%	?	5.1%	-6.6%
TDP1 cell CPT	?	11.6µM*	-4.9%	23.1µM*	?	?	?	-17.7%	6.8%	?
TDP1 inh	0.0%	-8.1%	0.0%	.	.	-10.3%	8.91µM*	2.7%	79.4µM*	3.3%

31) O=C(N/N=C/c1ccc2c(c1)OCO2)c1cc2ccccc2o1
32) O=C(COc1ccc(/C=N/NC(=O)c2cc3ccccc3o2)cc1Cl)Nc1ccccc1
33) COc1ccc(C)cc1NC(=O)Nc1ccncc1
34) O=C(Nc1ccccc1)c1ccc(F)c(S(=O)(=O)N2CCOCC2)c1
35) O=C(Nc1cccc(Cl)c1)c1ccc(F)c(S(=O)(=O)NCc2ccc3c(c2)OCO3)c1
36) CC(C)c1ccc(NC(=O)c2ccc(F)c(S(=O)(=O)N3CCc4ccccc43)c2)cc1
37) Cc1ccc(CNS(=O)(=O)c2cc(C(=O)Nc3ccc(C(C)C)cc3)ccc2F)cc1
38) O=C(Nc1ccc(Br)cc1)c1ccc(F)c(S(=O)(=O)NCc2cccs2)c1
39) O=C(Nc1ccc(Br)cc1)c1ccc(F)c(S(=O)(=O)N2CCc3ccccc32)c1
40) O=S(=O)(NCc1cccs1)c1ccc(Br)cc1
Screen / compound no.	31	32	33	34	35	36	37	38	39	40
DT40 TDP1 no CPT	21.6%	6.51µM*	4.0%	-18.8%	25.9µM*	7.31µM*	-9.2%	20.6µM*	20.6µM*	1.0%
miR-21 reporter	-23.9%	-39.3%	5.0%	5.5%	8.4%	6.3%	11.2%	?	24.4%	-4.1%
uPA surface inh	9.1%	1.5%	1.6%	-2.5%	-1.6%	.	.	-12.8%	.	5.9%
TDP1 cell CPT	4.9%	5.17µM*	-18.7%	-24.4%	-21.9%	5.17µM*	-1.4%	14.6µM*	23.1µM*	-4.4%
TDP1 inh	50.1µM*	4.2%	2.2%	2.1%	2.6%	5.2%	2.6%	4.2%	0.0%	1.7%

The closing 4 entries of the section above come first, to join the parts:
37) Cc1ccc(CNS(=O)(=O)c2cc(C(=O)Nc3ccc(C(C)C)cc3)ccc2F)cc1
38) O=C(Nc1ccc(Br)cc1)c1ccc(F)c(S(=O)(=O)NCc2cccs2)c1
39) O=C(Nc1ccc(Br)cc1)c1ccc(F)c(S(=O)(=O)N2CCc3ccccc32)c1
40) O=S(=O)(NCc1cccs1)c1ccc(Br)cc1
41) CC(C)c1ccc(N(CC(=O)NCc2ccc(F)cc2)C(=O)c2snc(C(N)=O)c2N)cc1
42) Cc1nc2nc(SCC(=O)Nc3ccccc3Cl)nn2c(C)c1Cc1ccccc1
43) O=C(OC1C2CCC1C1CN(CCc3ccccc3)CC12)c1ccccc1 (configuration not stated)
44) CCCCCCCCCCCCC/C=C/[C@@H](O)[C@H](CO)N(C)C
45) COCCn1c(-c2ccccc2)csc1=Nc1cccnc1
46) CC(C)n1c(-c2ccco2)csc1=Nc1cccnc1
47) Cc1ccc(-c2csc(=Nc3cccnc3)n2CCCN2CCCC2=O)cc1C
48) Cc1ccc(-c2csc(=Nc3cccnc3)n2CCCn2ccnc2)cc1C
49) CCOc1cc(N2CCOCC2)c(OCC)cc1NC(=O)CN1C(=O)C2CC=CCC2C1=O (configuration not stated)
Screen / compound no.	37	38	39	40	41	42	43	44	45	46	47	48	49
DT40 TDP1 no CPT	-9.2%	20.6µM*	20.6µM*	1.0%	?	?	16.4µM*	1.5%[4.12 µM]	?	?	18.4µM*	11.6µM*	0.2%
miR-21 reporter	11.2%	?	24.4%	-4.1%	-5.5%	-3.2%	0.8%	.	7.8%	-5.6%	-7.2%	?	-5.9%
uPA surface inh	.	-12.8%	.	5.9%	-1.2%	.	0.4%	.	-0.8%	-6.8%	-2.0%	-7.3%	-3.6%
TDP1 cell CPT	-1.4%	14.6µM*	23.1µM*	-4.4%	?	?	?	-1.6%[4.12 µM]	16.4µM*	11.2µM*	?	16.4µM*	8.0%
TDP1 inh	2.6%	4.2%	0.0%	1.7%	-2.1%[0.0935 µM]	7.8%	7.6%	2.4%	5.1%	6.1%	5.5%	8.5%	5.0%
